Values joined by “and” are separate entries in the source; they are usually repeats but may differ in a detail not shown here. Identical values can stand only once. Like-named read-outs stand apart in the source and are kept apart here.
Tests used:
[1] = tested on: P. hermaphrodita complex I; experiment: In vitro complex I activity assay, P. hermaphrodita mitochondria; format: biochemical, Phasmarhabditis hermaphrodita
[2] = tested on: L1 C. briggsae (AF16); experiment: Liquid development and viability assay, C. briggsae; format: cell-based, Caenorhabditis briggsae; details: liquid growth and development assay, 1 = like DMSO control, 0 = death
[3] = tested on: L1 P. pacificus (PS312); experiment: Liquid development and viability assay, P. pacificus; format: cell-based, Pristionchus pacificus; details: liquid growth and development assay, 1 = like DMSO control, 0 = death
[4] = tested on: ben-1 mutant (ECA882) C. elegans; details: for C. elegans L1 relative development & viability (score 0-1 relative to DMSO controls): strain ECA882, deletion (ben-1); for C. elegans L1 relative development & viability: ECA882 deletion (ben-1)
[5] = tested on: anthelmintic/nematicide-resistant C. elegans mutant strains; details: 1 µM

CC(C)Cc1ccc(C(C)c2nc3ccccc3n2C)cc1 (stereo not shown) [NPD8790]
in vitro complex I activity relative to solvent control ([1]; 0.0001 µM, Mean): 110.924% | in vitro complex I activity relative to solvent control ([1]; 0.0001 µM, single replicate): 120.583% and 108.711% and 103.477% | in vitro complex I activity relative to solvent control ([1]; 0.0005 µM, Mean): 123.891% | in vitro complex I activity relative to solvent control ([1]; 0.0005 µM, single replicate): 118.727% and 144.312% and 108.635% | in vitro complex I activity relative to solvent control ([1]; 0.001 µM, Mean): 103.622% | in vitro complex I activity relative to solvent control ([1]; 0.001 µM, single replicate): 95.252% and 119.501% and 96.112% | in vitro complex I activity relative to solvent control ([1]; 0.0025 µM, Mean): 105.133% | in vitro complex I activity relative to solvent control ([1]; 0.0025 µM, single replicate): 100.747% and 116.799% and 97.853% | in vitro complex I activity relative to solvent control ([1]; 0.005 µM, Mean): 118.617% | in vitro complex I activity relative to solvent control ([1]; 0.005 µM, single replicate): 119.619% and 121.920% and 114.313% | in vitro complex I activity relative to solvent control ([1]; 0.013 µM, Mean): 106.866% | in vitro complex I activity relative to solvent control ([1]; 0.013 µM, single replicate): 111.256% and 113.417% and 95.924% | in vitro complex I activity relative to solvent control ([1]; 0.025 µM, Mean): 111.679% | in vitro complex I activity relative to solvent control ([1]; 0.025 µM, single replicate): 113.063% and 115.968% and 106.005% | in vitro complex I activity relative to solvent control ([1]; 0.06 µM, Mean of replicates): 118.982% | in vitro complex I activity relative to solvent control ([1]; 0.06 µM, single replicate): 137.771% and 122.148% and 97.026% | in vitro complex I activity relative to solvent control ([1]; 0.063 µM, Mean): 110.716% | in vitro complex I activity relative to solvent control ([1]; 0.063 µM, single replicate): 126.946% and 113.171% and 92.030% | in vitro complex I activity relative to solvent control ([1]; 0.125 µM, Mean): 103.927% | in vitro complex I activity relative to solvent control ([1]; 0.125 µM, single replicate): 118.679% and 101.285% and 91.817% | in vitro complex I activity relative to solvent control ([1]; 0.13 µM, Mean of replicates): 109.002% | in vitro complex I activity relative to solvent control ([1]; 0.13 µM, single replicate): 130.134% and 101.338% and 95.535% | in vitro complex I activity relative to solvent control ([1]; 0.313 µM, Mean): 112.221% | in vitro complex I activity relative to solvent control ([1]; 0.313 µM, Mean of replicates): 120.745% | in vitro complex I activity relative to solvent control ([1]; 0.313 µM, single replicate): 133.127% and 114.716% and 114.392% and 123.548% and 108.409% and 104.706% | in vitro complex I activity relative to solvent control ([1]; 0.625 µM, Mean): 67.375% | in vitro complex I activity relative to solvent control ([1]; 0.625 µM, Mean of replicates): 64.457% | in vitro complex I activity relative to solvent control ([1]; 0.625 µM, single replicate): 67.387% and 72.409% and 53.576% and 75.221% and 71.892% and 55.012% | in vitro complex I activity relative to solvent control ([1]; 1.5 µM, Mean): 47.568% | in vitro complex I activity relative to solvent control ([1]; 1.5 µM, Mean of replicates): 44.163% | in vitro complex I activity relative to solvent control ([1]; 1.5 µM, single replicate): 35.391% and 54.358% and 42.741% and 42.334% and 55.634% and 44.736% | in vitro complex I activity relative to solvent control ([1]; 3 µM, Mean): 45.922% | in vitro complex I activity relative to solvent control ([1]; 3 µM, Mean of replicates): 43.695% | in vitro complex I activity relative to solvent control ([1]; 3 µM, single replicate): 26.286% and 59.986% and 44.813% and 34.824% and 59.458% and 43.485% | in vitro complex I activity relative to solvent control ([1]; 7.5 µM, Mean): 35.492% | in vitro complex I activity relative to solvent control ([1]; 7.5 µM, Mean of replicates): 37.467% | in vitro complex I activity relative to solvent control ([1]; 7.5 µM, single replicate): 33.539% and 39.671% and 39.191% and 30.926% and 39.887% and 35.664% | in vitro complex I activity relative to solvent control ([1]; 15 µM, Mean): 15.932% | in vitro complex I activity relative to solvent control ([1]; 15 µM, Mean of replicates): 17.736% | in vitro complex I activity relative to solvent control ([1]; 15 µM, single replicate): 0.309% and 22.340% and 30.559% and 2.751% and 18.041% and 27.005% | in vitro complex I activity relative to solvent control ([1]; 37.5 µM, Mean): 16.526% | in vitro complex I activity relative to solvent control ([1]; 37.5 µM, Mean of replicates): 22.254% | in vitro complex I activity relative to solvent control ([1]; 37.5 µM, single replicate): 22.531% and 14.928% and 29.304% and 13.442% and 10.195% and 25.942% | in vitro complex I activity relative to solvent control ([1]; 75 µM, Mean): 12.171% | in vitro complex I activity relative to solvent control ([1]; 75 µM, Mean of replicates): 14.958% | in vitro complex I activity relative to solvent control ([1]; 75 µM, single replicate): 11.008% and 13.246% and 20.619% and 8.371% and 10.450% and 17.691% | viability score (0-1) relative to DMSO controls ([2]; 2 µM): 1.000 | viability score (0-1) relative to DMSO controls ([2]; 3.9 µM): 1.000 | viability score (0-1) relative to DMSO controls ([2]; 7.8 µM): 1.000 | viability score (0-1) relative to DMSO controls ([2]; 15.6 µM): 1.000 | viability score (0-1) relative to DMSO controls ([2]; 31.3 µM): 1.000 | viability score (0-1) relative to DMSO controls ([2]; 62.5 µM): 1.000 | viability score (0-1) relative to DMSO controls ([2]; 125 µM): 0.426 | viability score (0-1) relative to DMSO controls ([2]; 250 µM): 0.027 | viability score (0-1) relative to DMSO controls ([3]; 2 µM): 1.000 | viability score (0-1) relative to DMSO controls ([3]; 3.9 µM): 1.000 | viability score (0-1) relative to DMSO controls ([3]; 7.8 µM): 1.000 | viability score (0-1) relative to DMSO controls ([3]; 15.6 µM): 1.000 | viability score (0-1) relative to DMSO controls ([3]; 31.3 µM): 1.000 | viability score (0-1) relative to DMSO controls ([3]; 62.5 µM): 0.706 | viability score (0-1) relative to DMSO controls ([3]; 125 µM): 0.430 | viability score (0-1) relative to DMSO controls ([3]; 250 µM): 0.182 | C. elegans L1 relative development & viability (score 0-1 relative to DMSO controls) ([4]; 1 µM): 1.000 | C. elegans L1 relative development & viability (score 0-1 relative to DMSO controls) ([4]; 2 µM): 1.000 | C. elegans L1 relative development & viability (score 0-1 relative to DMSO controls) ([4]; 3.9 µM): 1.000 | C. elegans L1 relative development & viability (score 0-1 relative to DMSO controls) ([4]; 7.8 µM): 1.000 | C. elegans L1 relative development & viability (score 0-1 relative to DMSO controls) ([4]; 15.6 µM): 0.845 | C. elegans L1 relative development & viability (score 0-1 relative to DMSO controls) ([4]; 31.3 µM): 1.000 | C. elegans L1 relative development & viability (score 0-1 relative to DMSO controls) ([4]; 62.5 µM): 1.000 | C. elegans L1 relative development & viability (score 0-1 relative to DMSO controls) ([4]; 125 µM): 1.000 | C. elegans L1 relative development & viability (score 0-1 relative to DMSO controls) ([4]; 250 µM): 1.000 | C. elegans L1 relative development & viability (score 0-1 relative to DMSO controls) ([4]; 500 µM): 0.458 | C. elegans L1 relative development & viability ([4]; 1 µM, score 0-1 relative to DMSO, values >1 set to 1): 1.000 | C. elegans L1 relative development & viability ([4]; 2 µM, score 0-1 relative to DMSO, values >1 set to 1): 1.000 | C. elegans L1 relative development & viability ([4]; 3.9 µM, score 0-1 relative to DMSO, values >1 set to 1): 1.000 | C. elegans L1 relative development & viability ([4]; 7.8 µM, score 0-1 relative to DMSO, values >1 set to 1): 1.000 | C. elegans L1 relative development & viability ([4]; 15.6 µM, […]): 0.845 | C. elegans L1 relative development & viability ([4]; 31.3 µM, score 0-1 relative to DMSO, values >1 set to 1): 1.000 | C. elegans L1 relative development & viability ([4]; 62.5 µM, score 0-1 relative to DMSO, values >1 set to 1): 1.000 | C. elegans L1 relative development & viability ([4]; 125 µM, score 0-1 relative to DMSO, values >1 set to 1): 1.000 | C. elegans L1 relative development & viability ([4]; 250 µM, score 0-1 relative to DMSO, values >1 set to 1): 1.000 | C. elegans L1 relative development & viability ([4]; 500 µM, […]): 0.458 | C. elegans L1 relative development & viability (score 0-1 relative to DMSO controls) ([5]; strain CB3474, G104D (ben-1)): 1.000 | C. elegans L1 relative development & viability (score 0-1 relative to DMSO controls) ([5]; strain ECA917, F200Y (ben-1)): 1.000 | C. elegans L1 relative development & viability (score 0-1 relative to DMSO controls) ([5]; strain ECA1075, F167Y (ben-1)): 0.989

— PMC11079024, “Identification of a family of species-selective complex I inhibitors as potential anthelmintics” (Nature Communications, 2024)
